Data from PubChem BioAssay AID493222 (Johns Hopkins Ion Channel Center, 2011).
Only a part is listed here, and it is no random draw. Calls of active or inactive are those of the source.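 Rule for the calls: active = mean of duplicate membrane potential ratios lying over 3 SD above or below the buffer control mean, so actives fall on both sides; inactive = the rest.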

experiment: membrane potential effects in parental HEK293, counter-screen for CHT inhibitor project, cell-based, membrane potential dye (AID 493222); conditions: choline response, at 10 µM;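 note: parental cells lack the transporter so any hit is non-specific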

| SMILES | outcome |
| --- | --- |
| O=[N+]([O-])c1cc([N+](=O)[O-])c(Nc2ccccn2)c([N+](=O)[O-])c1 | inactive |
| CC1=NCCc2c1[nH]c1ccccc21.O=[N+]([O-])c1cc([N+](=O)[O-])c(O)c([N+](=O)[O-])c1 | inactive |
